Results published in US9708375 (Amgen, dated 2017).

Molecular target: T1, biotin labeled human recombinant Sclerostin (human, UniProt Q9BQB4 24-213)
T1 construct: also called human Sclerostin; huSOST
T1 sequence (looked up): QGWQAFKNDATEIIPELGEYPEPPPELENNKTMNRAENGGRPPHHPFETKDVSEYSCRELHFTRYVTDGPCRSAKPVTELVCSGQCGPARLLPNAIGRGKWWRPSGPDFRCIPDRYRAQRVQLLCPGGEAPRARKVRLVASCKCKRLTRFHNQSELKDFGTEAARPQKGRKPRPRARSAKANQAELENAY
Assay: AlphaScreen Sclerostin/LRP-6 inhibition (Avimer-Ab fusions, muLRP-6/His per paragraph 194)

IC50: 150 nM
B1: P7655 (bispecific antibody, human IgG2, lambda)
heavy: SGGSCPAYTEFLCKDSDRCFPSEWRCDGEMDCVDGSDELHCGGGGCAPNQFRCNSYDKCVPAHWVCDGVLDCLDSSDETNCGGGGSGGGGSQVQLVESGGGVVQPGRSLRLSCAASGFTFSRYDMHWVRQAPGKGLEWVAIIFYDGSNKYYADPVKGRFTISRDNSKNTLYLQMNSLRAEDTAVYYCATLAAAFDYWGQGTLVTVSSASTKGPSVFPLAPCSRSTSESTAALGCLVKDYFPEPVTVSWNSGALTSGVHTFPAVLQSSGLYSLSSVVTVPSSNFGTQTYTCNVDHKPSNTKVDKTVERKCCVECPPCPAPPVAGPSVFLFPPKPKDTLMISRTPEVTCVVVDVSHEDPEVQFNWYVDGVEVHNAKTKPREEQFNSTFRVVSVLTVVHQDWLNGKEYKCKVSNKGLPAPIEKTISKTKGQPREPQVYTLPPSREEMTKNQVSLTCLVKGFYPSDIAVEWESNGQPENNYKTTPPMLDSDGSFFLYSKLTVDKSRWQQGNVFSCSVMHEALHNHYTQKSLSLSPGK
light: not shown
notes: also called C140165
